Tests used:
[1] = system: STAT3 Tyr705 and Ser727 phosphorylation; experiment: Western blot of STAT3 phosphorylation in TNBC and PTCL cells; details: MDA-MB-231 and SUDHL-1 cells
Protocol: (§1) Pancreatic cancer cells were lysed in RIPA buffer supplemented with 1 mM phenylmethylsulfonyl fluoride (PMSF), a proteinase inhibitor cocktail and a phosphatase inhibitor cocktail (Sigma). Lysates were separated by 8–12% sodium dodecyl sulfate-polyacrylamide gel electrophoresis (SDS-PAGE) and transferred to nitrocellulose. The blots were probed with specific antibodies followed by a secondary antibody, and then membranes were examined by the LI-COR Odyssey infrared imaging system (LI-COR Biotechnology, Lincoln NE). The antibodies used and their technical information are listed in Supplementary Table S2.

The chains behind the UniProt entries cited, without tags or fusion partners. Residues count along the entry.
UniProt P40763, 586-685 I659A limits assumed: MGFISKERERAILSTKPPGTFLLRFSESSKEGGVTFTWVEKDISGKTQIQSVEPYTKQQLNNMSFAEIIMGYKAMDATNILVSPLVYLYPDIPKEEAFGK
UniProt P40763, 586-685 K626A limits assumed: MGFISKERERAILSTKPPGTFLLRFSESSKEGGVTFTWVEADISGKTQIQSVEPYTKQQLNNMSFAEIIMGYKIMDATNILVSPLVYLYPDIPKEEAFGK
UniProt P40763, 586-685 Q644A limits assumed: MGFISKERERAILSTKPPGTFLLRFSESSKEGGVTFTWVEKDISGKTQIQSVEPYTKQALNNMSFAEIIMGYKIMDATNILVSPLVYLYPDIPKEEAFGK
UniProt Q12809, whole entry: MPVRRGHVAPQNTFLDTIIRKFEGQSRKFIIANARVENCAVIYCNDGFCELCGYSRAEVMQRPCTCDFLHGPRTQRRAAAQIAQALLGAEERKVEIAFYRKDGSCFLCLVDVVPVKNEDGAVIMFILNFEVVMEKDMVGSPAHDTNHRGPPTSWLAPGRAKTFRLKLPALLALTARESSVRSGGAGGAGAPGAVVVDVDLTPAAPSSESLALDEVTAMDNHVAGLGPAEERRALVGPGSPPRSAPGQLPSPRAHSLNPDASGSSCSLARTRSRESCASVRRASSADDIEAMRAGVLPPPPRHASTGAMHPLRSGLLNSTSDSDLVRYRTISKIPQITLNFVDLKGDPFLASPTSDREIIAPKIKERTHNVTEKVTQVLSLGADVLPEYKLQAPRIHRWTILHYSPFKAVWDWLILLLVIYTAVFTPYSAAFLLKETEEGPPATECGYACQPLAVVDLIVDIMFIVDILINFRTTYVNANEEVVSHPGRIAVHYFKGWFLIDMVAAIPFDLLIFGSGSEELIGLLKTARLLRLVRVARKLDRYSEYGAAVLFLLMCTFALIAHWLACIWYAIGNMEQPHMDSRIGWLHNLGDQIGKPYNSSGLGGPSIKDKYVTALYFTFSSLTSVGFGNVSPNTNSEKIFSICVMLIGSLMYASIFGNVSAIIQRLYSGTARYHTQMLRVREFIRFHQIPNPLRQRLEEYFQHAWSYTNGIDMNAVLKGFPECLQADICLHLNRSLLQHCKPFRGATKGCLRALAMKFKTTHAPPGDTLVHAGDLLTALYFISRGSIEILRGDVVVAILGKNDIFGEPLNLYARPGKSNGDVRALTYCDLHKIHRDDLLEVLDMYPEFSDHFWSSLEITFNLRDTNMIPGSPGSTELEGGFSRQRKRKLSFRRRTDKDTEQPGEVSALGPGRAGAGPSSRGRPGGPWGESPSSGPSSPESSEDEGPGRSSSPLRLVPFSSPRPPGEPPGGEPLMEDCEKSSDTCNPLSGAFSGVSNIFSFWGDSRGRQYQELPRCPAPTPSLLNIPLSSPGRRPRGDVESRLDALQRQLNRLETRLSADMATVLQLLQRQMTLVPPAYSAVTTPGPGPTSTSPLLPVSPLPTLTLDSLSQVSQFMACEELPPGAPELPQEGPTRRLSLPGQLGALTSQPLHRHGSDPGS
UniProt P08684, whole entry: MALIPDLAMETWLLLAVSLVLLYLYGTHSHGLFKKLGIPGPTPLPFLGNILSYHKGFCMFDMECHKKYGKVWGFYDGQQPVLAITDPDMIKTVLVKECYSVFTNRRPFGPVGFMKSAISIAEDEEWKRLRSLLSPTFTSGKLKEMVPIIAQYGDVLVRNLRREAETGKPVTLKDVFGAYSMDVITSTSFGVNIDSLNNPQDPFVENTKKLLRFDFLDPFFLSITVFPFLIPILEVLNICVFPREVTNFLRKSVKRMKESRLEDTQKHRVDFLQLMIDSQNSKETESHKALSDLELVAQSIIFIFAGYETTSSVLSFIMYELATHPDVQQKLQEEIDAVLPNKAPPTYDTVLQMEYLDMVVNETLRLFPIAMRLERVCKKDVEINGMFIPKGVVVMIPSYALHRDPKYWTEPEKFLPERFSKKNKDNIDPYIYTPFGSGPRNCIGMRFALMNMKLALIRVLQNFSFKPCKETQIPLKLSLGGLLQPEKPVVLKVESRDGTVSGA

[2] = system: STAT3 downstream gene expression; experiment: RT-qPCR / Western blot of STAT3 downstream genes; details: Capan-2, HPAC and BxPC-3
Protocol: as §1
Total RNA was isolated using TRIzol reagent (Takara, Japan). RNA was used to generate single-stranded cDNA according to the manufacturer’s protocols of the cDNA Reverse Transcription Kit (Takara, Japan) and then subjected to polymerase chain reaction (PCR) using SYBR Green Master Mix (Thermo Fisher Scientific). The expression of VEGF, Cyclin D1, c-Myc and Bcl-2 in Capan-2, HPAC, and BxPC-3 cells was validated by real-time quantitative PCR. The sequences of Real-time PCR primers are listed in Supplementary Table S3.

Pharmacokinetics in mice = experiment: Pharmacokinetics in mice
Protocol: To evaluate the antitumor effect of YY002 in vivo, we first determined the pharmacokinetic properties of YY002. The plasma exposure and pharmacokinetic parameters were detected following oral and intravenous administration at 10 and 1 mg/kg, respectively. The Cmax of YY002 was 4307.80 ng/mL in mice under oral administration. The t1/2 value of oral administration of YY002 was 14.30 h. After intravenous administration, YY002 Cmax was 8154.40 ng/mL at a mean t1/2 of 16.60 h (Supplementary Figure S5A).

PAN02-luciferase cells = experiment: Orthotopic pancreatic cancer model (PAN02)
[3] = Liver microsome stability, rat
PANC-1 tumor = experiment: PANC-1 xenograft model
STAT3-SH2D mutant I659A = STAT3-SH2D mutant I659A (Homo sapiens, UniProt P40763, I659A); experiment: MST binding to STAT3-SH2 mutant I659A
Source text: (§2) STAT1 (amino acid residues 127–716), STAT2 (amino acid residues 138–702), STAT3 (amino acid residues 127–722), STAT4 (amino acid residues 133–705), STAT5B (amino acid residues 136–703) and STAT6 (amino acid residues 113–658) were cloned into the pET28A vector. STAT3-SH2 (amino acid residues 586–685) and the mutants of the STAT3-SH2 produced by site-directed mutagenesis were also cloned into the pET28A vector. All recombinant human fusion proteins were expressed in E. coli BL21 (DE3). Then, according to different induction conditions, the protein expression was induced. During the induction of the expression of STAT3-SH2 and all the mutants, STAT1, STAT2, STAT3 and STAT6, when the OD value reached about 0.6–1.0, the E. coli was transferred to 22 °C and 0.5 mM Isopropyl β-D-1-thiogalactopyranoside (IPTG) was added. For the expression of STAT4 and STAT5B when the OD value reached about 0.5–0.6, the E. coli was transferred to 30 °C for 2.5–3 h and 0.2 mM IPTG was added.
(§3) Microscale thermophoresis (MST) was conducted as previously described.[28] Binding affinities of YY002, Stattic against purified STAT3^127–722 and STAT3-SH2 protein or YY002 against STAT3-SH2 WT and mutants were measured by a Monolith NT.115 (Nanotemper Technologies). […] The samples were then loaded into premium capillaries (NanoTemper Technologies) and measured at 25 °C using 20%–40% LED power and medium MST power. […]

[4] = system: STAT3 Tyr705 and Ser727 phosphorylation; experiment: Western blot of STAT3 phosphorylation; details: Capan-2, HPAC and BxPC-3 cells
Protocol: as §1

STAT3-SH2D mutant K626A = STAT3-SH2D mutant K626A (Homo sapiens, UniProt P40763, K626A); experiment: MST binding to STAT3-SH2 mutant K626A
Source text: as §2, §3

AsPC-1 cells = experiment: Orthotopic pancreatic cancer model (AsPC-1); details: high concentration group
hERG = hERG (Homo sapiens, UniProt Q12809); experiment: hERG inhibition (safety panel); details: safety profiling
SUDHL-1 tumor = experiment: SUDHL-1 xenograft model
complex I = experiment: Electron transfer chain experiment, Seahorse; details: Capan-2 cells, 50 nM
CYP3A4-M = CYP3A4-M (Homo sapiens, UniProt P08684); experiment: CYP3A4-M inhibition; details: safety profiling
STAT3-SH2D mutant Q644A = STAT3-SH2D mutant Q644A (Homo sapiens, UniProt P40763, Q644A); experiment: MST binding to STAT3-SH2 mutant Q644A
Source text: as §2, §3

Cn1c(C(=O)N2CCN(Cc3ccc(OCC(F)(F)F)cc3)CC2)cc2ccc(Oc3cnc(-c4nc(-c5ccc(C(F)(F)F)cc5)no4)cn3)cc21
Inhibition of STAT3 phosphorylation [1]: potently inhibited STAT3 Tyr705 and Ser727 phosphorylation | STAT3 downstream gene expression [2]: significantly suppressed STAT3 downstream gene expression | AUC0-24 (Pharmacokinetics in mice; iv 1 mg/kg): 28492.8 ng·h/mL | AUC0-∞ (Pharmacokinetics in mice; iv 1 mg/kg): 31926.9 ng·h/mL | CL (Pharmacokinetics in mice; iv 1 mg/kg): 0.522 mL/min/kg | Cmax (Pharmacokinetics in mice; iv 1 mg/kg): 8154.40 ng/mL | MRT0-t (Pharmacokinetics in mice; iv 1 mg/kg): 12.7 h | Vd (Pharmacokinetics in mice; iv 1 mg/kg): 0.616 L/kg | t1/2 (Pharmacokinetics in mice; iv 1 mg/kg, 1 mg/kg): 13.6 h | AUC0-24 (Pharmacokinetics in mice; po 10 mg/kg): 89145.2 ng·h/mL | AUC0-∞ (Pharmacokinetics in mice; po 10 mg/kg): 102082.3 ng·h/mL | CL (Pharmacokinetics in mice; po 10 mg/kg): 1.63 mL/min/kg | Cmax (Pharmacokinetics in mice; po 10 mg/kg): 4307.80 ng/mL | MRT0-t (Pharmacokinetics in mice; po 10 mg/kg): 15.0 h | Vd (Pharmacokinetics in mice; po 10 mg/kg): 2.0187 L/kg | t1/2 (Pharmacokinetics in mice; po 10 mg/kg): 14.30 h | F (AUC0-t), oral bioavailability (Pharmacokinetics in mice; po 10 mg/kg, 10 mg/kg): 31.3% | Survival of tumor-bearing mice (PAN02-luciferase cells; independent experiment): significantly prolonged the survival | Tumor growth and metastasis (bioluminescence) (PAN02-luciferase cells; orally for 4 weeks): inhibited tumor growth and metastasis in a concentration-dependent manner | Liver Microsomes t1/2 [3]: > 2 h | Tumor growth inhibition (TGI) rate (PANC-1 tumor; 20 mg/kg, orally): 93.56 ± 1.58% | STAT3 expression in tumors (PANC-1 tumor; immuno-staining): did not suppress STAT3 expression | STAT3 phosphorylation in tumors (PANC-1 tumor; p.o. 5 mg/kg to 20 mg/kg, immuno-staining): significantly suppressed the phosphorylation of STAT3 at Tyr705 and Ser727 | Plasma t1/2 (Plasma stability, mouse): > 2 h | Binding to mutant (STAT3-SH2D mutant I659A): did not bind | Inhibition of STAT3 phosphorylation [4]: concurrent inhibition of STAT3 Tyr705 and Ser727 phosphorylation | Binding affinity compared with SH2D-WT (STAT3-SH2D mutant K626A): only modestly changed | Mice survived (AsPC-1 cells): 60% | IC50 (hERG): > 25 µM | Antitumor efficacy compared to BBI608 (SUDHL-1 tumor; PTCL model, oral administration): superior antitumor efficacy compared to BBI608 | Antitumor efficacy in vivo (SUDHL-1 tumor; orally): significant regression | Electron transfer chain complex function (complex I): selectively impaired complex I functions | IC50 (CYP3A4-M): > 25 µM | Binding affinity compared with SH2D-WT (STAT3-SH2D mutant Q644A): only modestly changed

— paper PMC10979493
